Here are results for 70 compounds from PubChem BioAssay AID871 (The Scripps Research Institute Molecular Screening Center, 2007).

The entries are a selection whose mix differs from that of the whole data set. Activity calls are given as the source filed them.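 The calls were made as follows: active = activation above the screen-wide mean of compound activation plus 3 SD (cut at about 130% in these data); inactive = the rest.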

The test is described as follows: IL-6 driven STAT3 reporter potentiators, primary screen, U3A cells, luciferase, luminescence, MLSCN library (AID 871).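 Also: 0% = background luminescence of wells with medium and substrate only.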 The following applies: IL-6 STAT3-luciferase reporter, at 5.6 µM, stronger effect = higher value, 100% = signal with IL-6 EC80 alone. In outline:
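Detection: reporter luminescence signal / Assay system: STAT1-lacking human U3A cells, STAT3 luciferase reporter / Incubation: compound pre-incubation 1 h before IL-6, then 6 h stimulation at 37 °C / Control set: IL-6-only high control / Read-out: % activation relative to IL-6 control / Probe or stimulus: Interleukin-6, 33 ng/mL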
In general terms: A reporter such as luciferase makes a cellular process visible.
`COc1ccc(OP(C)(=O)Nc2cccc(Br)c2)cc1` (stereo not given): the activation (% of control) was inactive: 105%.

As for `COc1ccc(NP(C)(=O)Oc2ccccc2OC)cc1` (stereo not given), the activation (% of control) is inactive: 97.9%.

Take `CN(C)CCOC(=O)C(O)(c1ccccc1)C1CCCCC1` (stereo not given): the activation (% of control) is inactive: 100%.

Turning to `O=[N+]([O-])c1cc([N+](=O)[O-])c(NCC2CCS(=O)(=O)C2)c([N+](=O)[O-])c1` (stereo not given), the activation (% of control) is inactive: 99.3%.

For the compound `CCOP(C)(=S)SCC(=O)NC(C)(CC)C(=O)O` (stereo not given), the activation (% of control) is inactive: 101%.

Take `CP(=O)(Nc1ccc2c(c1)OCCO2)Oc1ccccc1` (stereo not given): the activation (% of control) is inactive: 95.9%.

Take `Cc1ccccc1NP(C)(=O)Nc1ccccc1C`: the activation (% of control) is inactive: 101%.

`CC(C)c1ccc(OP(C)(=O)Nc2ccc(SC(F)(F)F)cc2)cc1` (stereo not given): the activation (% of control) was inactive: 99.5%.

Regarding `CP(=O)(Nc1ccccc1F)Oc1ccccc1` (stereo not given), the activation (% of control) is inactive: 105%.

For `O=C(OCCN1CCN(CCOCc2ccccc2)CC1)C(O)(c1ccccc1)c1ccccc1`, the activation (% of control) was inactive: 94.5%.

For the compound `COc1ccc(OP(C)(=O)Nc2ccc(SC(F)(F)F)cc2)cc1` (stereo not given), the activation (% of control) is inactive: 107%.

`CCOC(=O)c1ccc(NP(C)(=O)Oc2ccc(F)cc2)cc1` (stereo not given): the activation (% of control) was inactive: 98.9%.

Regarding `CCN(CC)CCCOC(=O)C(O)(c1ccccc1)C1CCCCC1` (stereo not given), the activation (% of control) is inactive: 96.7%.

For `CP(=O)(Nc1ccccc1)Oc1ccc(F)cc1` (stereo not given), the activation (% of control) was inactive: 95.5%.

Consider `Cc1cc(C)cc(OP(C)(=O)Nc2cccc(C(F)(F)F)c2)c1` (stereo not given), for which the activation (% of control) was inactive: 99.7%.

Consider `COc1ccc(OP(C)(=O)Nc2ccccc2Br)cc1` (stereo not given), for which the activation (% of control) was inactive: 98.5%.

Take `COc1ccccc1OP(C)(=O)Nc1ccc(C)c(C)c1` (stereo not given): the activation (% of control) was inactive: 98.2%.

On to `Cc1nc2ccc3ccccc3c2o1.O=[N+]([O-])c1cc([N+](=O)[O-])c(O)c([N+](=O)[O-])c1`, for which the activation (% of control) was inactive: 106%.

On to `CP(=O)(Nc1ccc(Cl)cc1Cl)Oc1ccccc1` (stereo not given), for which the activation (% of control) is inactive: 106%.

`CP(=O)(OCCOc1ccccc1)OCCOc1ccccc1`: the activation (% of control) is inactive: 91.3%.

For the compound `CN(C)CCOC(=O)C(O)(c1ccccc1)C1CCCC1` (stereo not given), the activation (% of control) is inactive: 108%.

As for `COc1ccc(OP(C)(=O)Nc2ccccn2)cc1` (stereo not given), the activation (% of control) is inactive: 98.8%.

For the compound `Cc1c(NP(C)(=O)Oc2ccc(C(C)C)cc2)c(=O)n(-c2ccccc2)n1C` (stereo not given), the activation (% of control) is inactive: 101%.

On to `O=[N+]([O-])c1cc([N+](=O)[O-])c(Nc2ccccn2)c([N+](=O)[O-])c1`, for which the activation (% of control) was inactive: 86%.

For `CCc1ccc(OP(C)(=O)O)cc1`, the activation (% of control) is inactive: 99.4%.

As for `CP(=O)(Nc1ccccn1)Oc1ccccc1` (stereo not given), the activation (% of control) is inactive: 101%.

As to `COc1ccccc1OP(C)(=O)Nc1ccc(C)cc1C` (stereo not given), the activation (% of control) is inactive: 98.8%.

On to `CCN(CC)CC(O)COC(=O)C(O)(c1ccccc1)C1CCCCC1` (stereo not given), for which the activation (% of control) is inactive: 102%.

In the case of `COc1ccc(OP(C)(=O)Nc2ccc(Br)cc2)cc1` (stereo not given), the activation (% of control) was inactive: 95.7%.

As to `CP(=O)(Oc1ccccc1)N1CCOC1=O` (stereo not given), the activation (% of control) was inactive: 91.4%.

With `CCc1ccc(OP(C)(=O)Nc2cccnc2)cc1` (stereo not given), the activation (% of control) was inactive: 111%.

Turning to `COc1ccccc1OP(C)(=O)Nc1c(C)n(C)n(-c2ccccc2)c1=O` (stereo not given), the activation (% of control) was inactive: 109%.

In the case of `CP(=O)(Nc1ccc(Cl)cc1)Oc1ccc(F)cc1` (stereo not given), the activation (% of control) was inactive: 100%.

Turning to `COc1ccccc1OP(C)(=O)Nc1ccccc1Br` (stereo not given), the activation (% of control) is inactive: 93.7%.

In the case of `CC(C)(C)c1ccc(OP(C)(=O)O)cc1`, the activation (% of control) is inactive: 99.4%.

On to `CN(C)C(=O)c1c([N+](=O)[O-])cc([N+](=O)[O-])cc1[N+](=O)[O-]`, for which the activation (% of control) is inactive: 99.4%.

Regarding `CP(=O)(OC12CC3CC(CC(C3)C1)C2)OC12CC3CC(CC(C3)C1)C2`, the activation (% of control) is inactive: 98%.

Consider `CCOC(=O)c1ccc(NP(C)(=O)Oc2ccc(Cl)cc2)cc1` (stereo not given), for which the activation (% of control) is inactive: 97.9%.

Regarding `CP(=S)(Nn1cnnc1)Oc1ccccc1` (stereo not given), the activation (% of control) is inactive: 93.5%.

Turning to `COc1ccccc1OP(C)(=O)Nc1ccccc1` (stereo not given), the activation (% of control) was inactive: 101%.

Turning to `CP(=O)(Nc1ccccc1Br)Oc1ccccc1` (stereo not given), the activation (% of control) is inactive: 88.4%.

Regarding `Cc1cccc(C)c1OP(C)(=O)Nc1ccc(SC(F)(F)F)cc1` (stereo not given), the activation (% of control) was inactive: 105%.

As for `CP(=O)(Oc1ccccc1)OC(c1ccccc1)C(F)(F)F` (stereo not given), the activation (% of control) is inactive: 106%.

For `CP(=O)(NC(=O)Nc1ccccc1)Oc1ccccc1` (stereo not given), the activation (% of control) was inactive: 100%.

With `Cc1cc(C)cc(OP(C)(=O)Nc2ccc(SC(F)(F)F)cc2)c1` (stereo not given), the activation (% of control) was inactive: 107%.

On to `CCOP(C)(=S)SCC(=O)NC(C)C(=O)O` (stereo not given), for which the activation (% of control) was inactive: 102%.

Regarding `CCOC(=O)c1ccc(NP(C)(=O)Oc2ccc(OC)cc2)cc1` (stereo not given), the activation (% of control) is inactive: 93.6%.

Turning to `CP(=O)(Nc1ccccn1)Oc1ccc(Cl)cc1` (stereo not given), the activation (% of control) is inactive: 107%.

For the compound `CCN(CC)CCCOC(=O)C(O)(c1ccccc1)c1ccccc1`, the activation (% of control) is inactive: 105%.

Regarding `CC(C)(C)c1ccc(OP(C)(=O)Nc2ccc(SC(F)(F)F)cc2)cc1` (stereo not given), the activation (% of control) is inactive: 94.5%.

With `Cc1cccc(C)c1OP(C)(N)=O` (stereo not given), the activation (% of control) is inactive: 90.8%.

Turning to `O=[N+]([O-])c1ccc2c(c1)C=Nc1ccccc1O2`, the activation (% of control) is inactive: 106%.

Consider `CCOC(=O)c1ccc(NP(C)(=O)Oc2ccccc2)cc1` (stereo not given), for which the activation (% of control) was inactive: 103%.

For the compound `COc1ccccc1OP(C)(=O)Nc1ccc(C)cc1` (stereo not given), the activation (% of control) was inactive: 94.3%.

As for `Cc1ccc(NP(C)(=O)Oc2ccccc2)c(C)c1` (stereo not given), the activation (% of control) was inactive: 105%.

With `COc1ccccc1OP(C)(=O)Nc1cc(Cl)ccc1C` (stereo not given), the activation (% of control) was inactive: 95.9%.

On to `COc1ccc(OP(C)(=O)Nc2cccc(F)c2)cc1` (stereo not given), for which the activation (% of control) was inactive: 101%.

As for `Cc1cc(C)cc(OP(C)(N)=O)c1` (stereo not given), the activation (% of control) was inactive: 95.7%.

For `CC1=NCCc2c1[nH]c1ccccc21.O=[N+]([O-])c1cc([N+](=O)[O-])c(O)c([N+](=O)[O-])c1`, the activation (% of control) was inactive: 101%.

Regarding `Cc1cc(C)cc(OP(C)(=O)Nc2ccc(C)cc2C)c1` (stereo not given), the activation (% of control) was inactive: 98.7%.

For `CCOC(=O)c1ccc(NP(C)(=O)Oc2cc(C)cc(C)c2)cc1` (stereo not given), the activation (% of control) was inactive: 100%.

Take `Cc1cc(C)cc(OP(C)(=O)Nc2ccccn2)c1` (stereo not given): the activation (% of control) is inactive: 101%.

With `CP(=O)(Nc1cccc(Br)c1)Oc1ccccc1` (stereo not given), the activation (% of control) was inactive: 99.3%.

Regarding `Cc1ccc(C)c(NP(C)(=O)Oc2ccccc2)c1` (stereo not given), the activation (% of control) was inactive: 100%.

Take `O=[N+]([O-])c1cc([N+](=O)[O-])c(-n2nnc3ccccc32)c([N+](=O)[O-])c1`: the activation (% of control) was inactive: 104%.

As for `Cc1nc2ccc3ccccc3c2s1.O=[N+]([O-])c1cc([N+](=O)[O-])c(O)c([N+](=O)[O-])c1`, the activation (% of control) was inactive: 93.5%.

Take `COc1ccccc1OP(C)(=O)Nc1c(C)cccc1C` (stereo not given): the activation (% of control) was inactive: 99.5%.

For `CN1CCCCC1COC(=O)C1(O)c2ccccc2CCc2ccccc21` (stereo not given), the activation (% of control) is inactive: 99.5%.

Turning to `CCCOc1ccc(NP(C)(=O)Oc2ccc(Cl)cc2)cc1` (stereo not given), the activation (% of control) is inactive: 107%.

In the case of `CP(=O)(Nc1ccc(SC(F)(F)F)cc1)Oc1ccccc1` (stereo not given), the activation (% of control) is inactive: 101%.
